Test results: patent publication US12171806B2, “Therapeutic regimens and methods for lowering blood glucose and/or body weight using GLP-1R and GCGR balanced agonists” (priority 2021, dated 2024)

Protein sequences, listed by entry. Tags and fused reporters are not part of them. Residues count along the entry.
UniProt P43220, 24-463: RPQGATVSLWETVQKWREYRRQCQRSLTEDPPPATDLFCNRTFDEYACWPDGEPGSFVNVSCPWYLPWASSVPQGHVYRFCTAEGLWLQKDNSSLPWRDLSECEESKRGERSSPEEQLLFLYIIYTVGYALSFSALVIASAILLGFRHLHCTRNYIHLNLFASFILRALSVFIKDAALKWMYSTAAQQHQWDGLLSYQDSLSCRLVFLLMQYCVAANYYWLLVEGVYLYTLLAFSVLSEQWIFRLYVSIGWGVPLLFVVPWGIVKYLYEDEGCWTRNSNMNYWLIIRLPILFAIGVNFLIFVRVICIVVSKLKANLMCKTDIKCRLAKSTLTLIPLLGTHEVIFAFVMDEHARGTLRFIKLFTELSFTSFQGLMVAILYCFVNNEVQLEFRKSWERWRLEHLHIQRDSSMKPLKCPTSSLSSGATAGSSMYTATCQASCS

Molecular target: GLP-1 (human, cloned into CHO cells) receptor (Homo sapiens, UniProt P43220)

## CC[C@H](C)[C@H](NC(=O)[C@H](Cc1ccccc1)NC(=O)[C@H](CCC(=O)O)NC(=O)[C@@H]1CCCCNC(=O)CC[C@H](NC(=O)[C@H](CC(=O)O)NC(=O)[C@H](CC(C)C)NC(=O)[C@H](Cc2ccc(O)cc2)NC(=O)[C@H](CCCCN)NC(=O)[C@H](CO)NC(=O)[C@H](Cc2ccc(O)cc2)NC(=O)[C@H](CC(=O)O)NC(=O)[C@H](CO)NC(=O)[C@@H](NC(=O)[C@H](Cc2ccccc2)NC(=O)[C@@H](NC(=O)CNC(=O)[C@H](CCC(N)=O)NC(=O)C(C)(C)NC(=O)[C@@H](N)Cc2c[nH]cn2)[C@@H](C)O)[C@@H](C)O)C(=O)N[C@@H](CCC(N)=O)C(=O)N[C@@H](C)C(=O)N[C@@H](C)C(=O)N1)C(=O)N[C@@H](CCCCNC(=O)[C@H]1O[C@@H](OCCCCCCCCCCCCCCCCCC(=O)O)[C@H](O)[C@@H](O)[C@@H]1O)C(=O)N[C@@H](Cc1c[nH]c2ccccc12)C(=O)N[C@@H](CC(C)C)C(=O)N[C@@H](CC(C)C)C(=O)N[C@@H](CCC(N)=O)C(=O)N[C@H](C(N)=O)[C@@H](C)O [EU-A1872]
  Ovalbumin vs. BSA-fold improv/worsen, GLP-1 R: 30 fold
